Target: Fibroblast growth factor 22 (Homo sapiens) (UniProt Q9HCT0)
Test: FGF22 ligand-induced thermal stabilization – biophysical, thermal shift, cherry-pick, FGF22 synaptogenesis inhibitor project, dose response (AID 687022)
Settings: recombinant FGF22 thermal shift, SYPRO orange melting

Chains of the proteins cited; added tags and fusions are not shown. Lines headed by an entry give the natural chain unless they say otherwise; changes in a name come on top.
UniProt Q9HCT0: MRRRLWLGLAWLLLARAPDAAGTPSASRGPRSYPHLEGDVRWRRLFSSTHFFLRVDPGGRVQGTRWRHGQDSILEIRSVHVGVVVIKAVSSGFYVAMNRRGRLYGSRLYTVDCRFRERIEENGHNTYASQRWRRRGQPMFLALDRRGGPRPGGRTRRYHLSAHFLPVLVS

Structure (SMILES) | AC50 [µM]
Cc1ccc(S(=O)(=O)N(CCCN)CCCc2c(C)nc(N)[nH]c2=O)cc1 | 4.73
Nc1ccc(CCCCOc2ccccc2)cc1 | 9.03

Reference: PubChem BioAssay AID687022 (Broad Institute, 2013)
